# Binding of CDR-mutated scFvs to a peptide of the spike HR2 region

Source: Li et al. 2023 (doi:10.1038/s41467-023-39022-2), MIT Lincoln Laboratory and A-Alpha Bio; data file from the FLAb repository.

All variants were tested on one target, the spike HR2 peptide PDVDLGDISGINAS (SARS-CoV-2).

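Phage display of a naive human antibody library on the peptide gave the parent. The variants were designed computationally from a first round of random CDR variants and then made and measured. Several design methods are mixed in this list. The scFvs were displayed on barcoded MATa yeast, the peptide on MATalpha yeast. Mating (16 h, 30 °C) was followed by selection of diploids and sequencing of their barcodes. Read counts were normalised to the haploid input and turned into Kd by a linear fit to BCL2-family pairs of known affinity, for each replicate. Mating was done six times.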

The variants keep the heavy chain, the linker and the frameworks of Ab-14 (scFv order VH, three GGGGS repeats, VL).
VH: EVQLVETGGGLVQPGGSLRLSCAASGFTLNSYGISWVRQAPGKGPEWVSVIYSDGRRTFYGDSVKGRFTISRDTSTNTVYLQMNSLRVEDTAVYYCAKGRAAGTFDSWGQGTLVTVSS
VL: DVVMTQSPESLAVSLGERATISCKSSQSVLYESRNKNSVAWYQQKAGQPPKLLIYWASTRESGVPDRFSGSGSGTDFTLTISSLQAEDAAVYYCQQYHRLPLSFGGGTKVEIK

Each variant's VL is given in full. Variants here have more than six changes. Kd is apparent (estimated from mating counts) and averaged on the log scale over replicates with a signal. Smaller is tighter. "no signal" means that the variant was in the library but no mating with the target was seen in any replicate; the authors take this as a sign of poor binding, and no number exists.

The variant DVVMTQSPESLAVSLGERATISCKLEMDTLGLKGNQNSIAWYQQKAGQPPKLLIYAARESWEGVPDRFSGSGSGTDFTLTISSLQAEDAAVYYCQQYYMLPISFGGGTKVEIK gave 9.2 nM (6 of 6 replicates; controls 2 of 18). For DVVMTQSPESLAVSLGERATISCIFSQSVMMGNMTRNSVAWYQQKAGQPPKLLIYQASTRFNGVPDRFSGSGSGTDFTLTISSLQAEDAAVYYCQQYHRLPLIFGGGTKVEIK, the assay gave 170 nM (5 of 6 replicates; controls 0 of 18). The variant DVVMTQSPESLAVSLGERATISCMISQLMNVGQFAINSVAWYQQKAGQPPKLLIYQASIRNAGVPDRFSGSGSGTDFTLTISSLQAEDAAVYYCQQYDRLPLAFGGGTKVEIK gave 12 nM (6 of 6 replicates; controls 0 of 18). With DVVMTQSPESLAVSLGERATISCTISQITSTFSMNINNVAWYQQKAGQPPKLLIYEVSTREKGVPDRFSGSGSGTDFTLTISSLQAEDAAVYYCQQYDRLPLSFGGGTKVEIK the result was 1.3 nM (6 of 6 replicates; controls 1 of 18). For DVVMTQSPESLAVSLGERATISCHITYGMNVAGRHSSSIAWYQQKAGQPPKLLIYQAETREKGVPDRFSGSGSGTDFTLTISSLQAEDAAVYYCQQYDRLPLSFGGGTKVEIK, the assay gave 5.6 nM (6 of 6 replicates; controls 1 of 18). For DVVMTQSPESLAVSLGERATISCAIRQMTEEAAQNSNSIAWYQQKAGQPPKLLIYEEDRVTEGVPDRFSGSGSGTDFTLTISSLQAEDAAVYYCQQYSKLPLTFGGGTKVEIK, the assay gave 22 nM (6 of 6 replicates; controls 0 of 18). The variant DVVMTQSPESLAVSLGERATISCKLSQSDGYEQRNSNSVAWYQQKAGQPPKLLIYEASTREDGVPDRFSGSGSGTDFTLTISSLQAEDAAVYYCQQYHRLPLSFGGGTKVEIK showed 2.4 nM (6 of 6 replicates; controls 3 of 18). With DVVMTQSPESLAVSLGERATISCKLSMVTGHMSMAKNNVAWYQQKAGQPPKLLIYEMVTRENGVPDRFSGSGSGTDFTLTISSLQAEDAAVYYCQQYNRLPLSFGGGTKVEIK the result was 1.6 nM (6 of 6 replicates; controls 3 of 18).

With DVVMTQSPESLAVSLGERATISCKSQQSWEYGDRNKNSVAWYQQKAGQPPKLLIYNASQREDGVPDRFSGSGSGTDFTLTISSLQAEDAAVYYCQQYHRLPLSFGGGTKVEIK the result was 20 nM (5 of 6 replicates; controls 0 of 18). The variant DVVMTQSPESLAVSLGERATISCHMSQVTMYGYWMKNSVAWYQQKAGQPPKLLIYQTSTREEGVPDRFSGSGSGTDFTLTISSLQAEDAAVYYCQQYDRLPLSFGGGTKVEIK showed 810 pM (6 of 6 replicates; controls 2 of 18). The variant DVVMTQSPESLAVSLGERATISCTLTQVQGMEMHNKDNVAWYQQKAGQPPKLLIYDLSTRGNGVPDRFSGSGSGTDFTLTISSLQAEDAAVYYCQQYDRLPLSFGGGTKVEIK showed 8.3 nM (6 of 6 replicates; controls 3 of 18). With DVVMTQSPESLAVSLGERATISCKLSGLMASSKFAKDNVAWYQQKAGQPPKLLIYENNTREDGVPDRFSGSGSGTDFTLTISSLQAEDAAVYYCQQYDRLPLSFGGGTKVEIK the result was 140 nM (1 of 6 replicates; controls 2 of 18). For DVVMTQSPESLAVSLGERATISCKSQISPGYEQRNKNSVAWYQQKAGQPPKLLIYEASTRCDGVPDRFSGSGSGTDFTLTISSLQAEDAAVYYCQQYHRLPLSFGGGTKVEIK, the assay gave 88 nM (6 of 6 replicates; controls 0 of 18). The variant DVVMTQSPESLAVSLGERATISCTLGQSTLMESRNKNNVAWYQQKAGQPPKLLIYQMSTRESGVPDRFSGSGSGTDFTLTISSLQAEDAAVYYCQQYDRLPLSFGGGTKVEIK showed 1.4 nM (6 of 6 replicates; controls 0 of 18). The variant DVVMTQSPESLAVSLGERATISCKLQQESDNMNDMQNSVAWYQQKAGQPPKLLIYEESMVQYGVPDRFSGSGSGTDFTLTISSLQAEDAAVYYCQHYWRLPLTFGGGTKVEIK gave no signal (0 of 6 replicates; controls 0 of 18). For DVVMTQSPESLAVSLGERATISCMISQIYNMGQFAINSVAWYQQKAGQPPKLLIYQASERSNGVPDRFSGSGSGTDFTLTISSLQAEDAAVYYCQQYDRLPLMFGGGTKVEIK, the assay gave 35 nM (6 of 6 replicates; controls 0 of 18).

The variant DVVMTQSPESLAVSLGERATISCKLSATYRFESQNKNSIAWYQQKAGQPPKLLIYEMTTREKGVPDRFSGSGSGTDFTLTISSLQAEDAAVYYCQCYHRLPLSFGGGTKVEIK gave 6.0 nM (5 of 6 replicates; controls 0 of 18). The variant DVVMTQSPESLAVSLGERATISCMISQLMNLGQFAINSVAWYQQKAGQPPKLLIYQAEDRNAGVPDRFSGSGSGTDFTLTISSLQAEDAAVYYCQQYDRLPLAFGGGTKVEIK gave no signal (0 of 6 replicates; controls 0 of 18). For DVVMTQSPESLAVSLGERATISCKIYQLGKGSQKINNNIAWYQQKAGQPPKLLIYQTSIRELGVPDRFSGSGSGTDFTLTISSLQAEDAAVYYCQSYNRLPLSFGGGTKVEIK, the assay gave 50 nM (6 of 6 replicates; controls 0 of 18). The variant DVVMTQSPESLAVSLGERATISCKIGMTLNQLYEKANNVAWYQQKAGQPPKLLIYDLVERENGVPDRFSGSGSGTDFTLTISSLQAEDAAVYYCQQYHRLPLSFGGGTKVEIK gave 4.8 nM (6 of 6 replicates; controls 1 of 18).

Excerpt, the first 2 entries:

{"VL": "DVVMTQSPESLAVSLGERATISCKLEMDTLGLKGNQNSIAWYQQKAGQPPKLLIYAARESWEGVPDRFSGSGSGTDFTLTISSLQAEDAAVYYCQQYYMLPISFGGGTKVEIK", "Kd (apparent)": "9.2 nM", "seen in": "6 of 6", "signal with controls": "2 of 18"}
{"VL": "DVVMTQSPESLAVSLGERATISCIFSQSVMMGNMTRNSVAWYQQKAGQPPKLLIYQASTRFNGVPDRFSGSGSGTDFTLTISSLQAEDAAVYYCQQYHRLPLIFGGGTKVEIK", "Kd (apparent)": "170 nM", "seen in": "5 of 6", "signal with controls": "0 of 18"}

The authors averaged sequences with at least three values out of six and counted those with two or fewer as poor binders. Values of this round are not directly comparable with the first-round values of the same sequences. The parent sequence was in this pool as ten entries: three were never detected, three once, and four in most replicates, with averages from 2.2 nM to 240 nM. Three control strains display no target. For all light chain designs, 4% of the pairings with them gave a signal, with a median of 430 nM and one signal in twenty below 38 nM, so weak values seen in few replicates may be background. The control count says in how many pairings with the empty strains this scFv gave a signal.